Measurements from patent publication US11786555B2, “RAR selective agonists in combination with immune modulators for cancer immunotherapy” (IO THERAPEUTICS, INC., priority 2017, dated 2023).

Tested on: BM stromal cells
Test: CYP26A1 expression in BM stromal cells exposed to soluble factors
Format: cell-based
Settings: soluble factors tested
Method: qRT-PCR. Total RNA was extracted using the RNeasy Mini Kit (QIAGEN) according to the manufacturer's instructions. cDNA was synthesized by reverse transcription using the iScript cDNA Synthesis Kit (Bio-Rad). qRT-PCR was performed with iTaq SYBR Green Supermix (Bio-Rad) using sequence specific primers. Gene expression was normalized to GAPDH, and relative quantification was calculated using ΔΔCt. All experiments were performed in duplicate and run on the Bio-Rad CFX96 machine.
MM cells produce a variety of soluble factors including cytokines (IL-1, IL-3, IL-6, TNF-α) as well as Hedgehog ligands such as sonic hedgehog (SHH), which could impact the BM stromal compartment. Therefore, it was determined whether any of these factors was responsible for the observed upregulation of CYP26A1 on BM stromal cells. […] Consistent with this, there was a statistically significant correlation between the mRNA levels of SHH in MM cells and activation of stromal Hedgehog signaling as determined by protein patched homolog 1 (PTCH1) expression. […] SHH has a half-life of less than 1 hr, which may explain the reduced effect of MM-conditioned media on stromal CYP26A1 expression compared with that observed in coculture and Transwell experiments.

B1: IL-3: cytokine, soluble factor produced by MM cells (protein, UniProt P08700 20-152, looked up)
Interleukin-3: APMTQTTPLKTSWVNCSNMIDEIITHLKQPPLPLLDFNNLNGEDQDILMENNLRRPNLEAFNRAVKSLQNASAIESILKNLLPCLPLATAAPTRHPIHIKDGDWNEFRRKLTFYLKTLENAQAQQTTLSLAIF
expression of CYP26A1 on BM stromal cells: no significant effects
